The results in this text go back to patent publication US20190010167A1, “INHIBITORS OF THE MENIN-MLL INTERACTION” (Vitae Pharmaceuticals, Inc., priority 2015, published 2019).

By UniProt entry, the sequences of proteins in these tests, tags left out.
UniProt O00255, whole entry: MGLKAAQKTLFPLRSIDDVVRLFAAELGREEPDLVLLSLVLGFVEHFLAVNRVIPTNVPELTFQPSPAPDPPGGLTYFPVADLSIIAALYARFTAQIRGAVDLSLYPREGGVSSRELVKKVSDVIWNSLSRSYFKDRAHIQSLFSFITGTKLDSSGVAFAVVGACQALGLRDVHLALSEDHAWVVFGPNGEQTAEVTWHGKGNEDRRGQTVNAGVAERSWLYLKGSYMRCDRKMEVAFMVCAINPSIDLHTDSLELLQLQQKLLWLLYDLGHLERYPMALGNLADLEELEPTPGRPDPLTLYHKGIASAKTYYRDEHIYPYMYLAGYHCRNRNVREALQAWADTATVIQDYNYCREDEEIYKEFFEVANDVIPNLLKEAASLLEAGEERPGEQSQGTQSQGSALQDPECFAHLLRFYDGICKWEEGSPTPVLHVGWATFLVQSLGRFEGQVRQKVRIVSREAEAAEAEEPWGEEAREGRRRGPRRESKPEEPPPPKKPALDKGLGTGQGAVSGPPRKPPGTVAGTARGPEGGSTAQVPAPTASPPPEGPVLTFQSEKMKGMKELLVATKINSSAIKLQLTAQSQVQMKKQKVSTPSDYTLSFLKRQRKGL

This experiment concerns the target wild-type menin / MLL-AF9 fusion protein (Homo sapiens, UniProt O00255). Kind of experiment: AlphaLISA menin/MLL binding assay, wild-type menin (Assay 1). The settings on record: read-out: Assay 1 Wild Type Menin IC50, biotinylated wild-type menin 5 nM, MLL-AF9-FLAG lysate, tested form: probably trifluoroacetate (second 19F si). Here is the method:
Potencies of inhibitor compounds against menin/MLL binding were assessed by AlphaLISA assay using biotinylated (1) wild-type menin or (2) mutated menin (described in Nature (2012) Vol. 482, pp. 542-548) and MLL-AF9 fusion protein bearing a FLAG epitope at its C-terminus. Menin proteins were expressed in E. coli and covalently modified with biotin using EZ-Link™ Sulfo-NHS-Biotin (ThermoFisher Cat. No. 21217) according to manufacturer's protocol. MLL1-1,396 fused to AF91-92 and the C-terminal FLAG peptide was expressed in HEK293 cells and used as a lysate cleared at 21,000×g for 10 min.
Compounds (2 μL of solutions in DMSO) were dispensed in white 96-well half-area plates (Corning Cat. No. 3693) and incubated for 30 min at RT with 5 nM biotinylated menin and appropriate amount of MLL-AF9-FLAG lysate in 40 μL of 50 mM Tris-HCl buffer pH 7.4 containing 5% (v/v) DMSO, 50 mM NaCl, 0.01% (w/v) bovine serum albumin (BSA) and 1 mM DTT. To this incubation mixture, 40 μl of AlphaLISA anti-FLAG acceptor (PerkinElmer Cat. No. AL112C) and streptavidin donor (PerkinElmer Cat. No. 6760002) beads (10 μg/mL each) was added and incubation continued at RT for 60 min. Alpha (amplified luminescent proximity homogeneous assay) signal was measured on an Envision multi-label plate reader at the end of the incubation. All steps were conducted under dim fluorescent light. […]
In general terms: In Alpha technology, singlet oxygen from a donor bead excites a nearby acceptor bead.

In general, IC50 refers to the concentration that inhibits the measured activity by half.

For the compound `COC1CCC(C(=O)N2CC3(C2)CN(c2ncnc4sc(CC(F)(F)F)cc24)C3)CC1` (single isomer, unassigned) [Example 60a], the IC50 is greater than 1 µM.

On to `COC1CCC(C(=O)N2CC3(C2)CN(c2ncnc4sc(CC(F)(F)F)cc24)C3)CC1` (single isomer, unassigned) [Example 60b], for which the IC50 was in the range of 0.1 to 1 µM.
